Test results taken from patent US7687620B2, “[1,4]diazepino[6,7,1-IJ]quinoline derivatives as antipsychotic and antiobesity agents” (Wyeth LLC, priority 2002, dated 2010).

The chains behind the UniProt entries cited, without tags or fusion partners. Residues count along the entry.
UniProt P28335, 33-458: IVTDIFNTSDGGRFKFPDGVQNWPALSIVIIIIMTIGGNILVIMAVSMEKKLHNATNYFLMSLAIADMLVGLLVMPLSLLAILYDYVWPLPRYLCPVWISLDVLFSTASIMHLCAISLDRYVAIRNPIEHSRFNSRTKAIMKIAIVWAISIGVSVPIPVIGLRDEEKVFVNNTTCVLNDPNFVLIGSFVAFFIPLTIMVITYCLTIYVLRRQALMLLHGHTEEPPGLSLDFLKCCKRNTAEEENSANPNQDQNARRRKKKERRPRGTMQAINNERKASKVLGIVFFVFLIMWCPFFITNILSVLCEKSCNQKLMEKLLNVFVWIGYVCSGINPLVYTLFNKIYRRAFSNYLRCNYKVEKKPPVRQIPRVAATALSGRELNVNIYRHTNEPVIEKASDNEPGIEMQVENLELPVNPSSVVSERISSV

Target: T1, human 5-hydroxytryptamine2C (h5HT2C) receptor (Homo sapiens, UniProt P28335)
T1 construct: expressed in transfected cells; host or cells: CHO (Chinese Hamster Ovary) cells; membrane preparation
Experiment: 5HT2C receptor binding ([125I]DOI displacement, CHO cell membranes)
Conditions: [125I]DOI binding, CHO membranes expressing h5HT2C; 95% confidence interval in brackets; read-out: Ki (95% confidence interval), reference compounds

Work on “1-(2,5-dimethoxy-4-iodophenyl)isopropylamine [DOI, reference compound]” yielded a Ki of 6.2 nM.
